Test results: PMC9025941, “Influence of the Type of Amino Acid on the Permeability and Properties of Ibuprofenates of Isopropyl Amino Acid Esters” (International Journal of Molecular Sciences, 2022)

Experiments:
[1] = n-octanol-water partition coefficient, shake flask method; details: 25 °C
[2] = In vitro skin permeation, Franz diffusion cells
[3] = 24 h penetration, n = 3

| Compound | Log P (n-octanol-water partition coefficient) [1] | LT, lag time ([2]; n = 3) | also measured |
| --- | --- | --- | --- |
| CC(C)Cc1ccc(C(C)C(=O)O)cc1.CC(C)OC(=O)[C@@H](N)CCCCN [L-lysine isopropyl ester ibuprofenate] | 1.047 ± 0.018 | – | – |
| CC(C)Cc1ccc(C(C)C(=O)O)cc1.CC(C)OC(=O)[C@@H](N)C(C)C [L-valine isopropyl ester ibuprofenate] | – | 1.443 ± 0.122 h | – |
| CC(C)Cc1ccc(C(C)C(=O)O)cc1.CC(C)Cc1ccc(C(C)C(=O)O)cc1.CC(C)OC(=O)[C@@H](N)CCCCN [L-lysine isopropyl ester bis(ibuprofenate)] | 1.055 ± 0.006 | – | – |
| glycine isopropyl ester ibuprofenate [[GlyOiPr][IBU]] | 0.645 ± 0.012 | – | Accumulation in the skin [3]: 785.483 ± 95.862 µg IBU g^−1 |
| L-proline isopropyl ester ibuprofenate | 1.053 ± 0.048 | 1.428 ± 0.031 h | Q%24 h, the percentage of the applied dose permeated after 24 h ([2]; 24 h, n = 3): 15.660 ± 0.435%; Cumulative Permeation Mass ([2]; 24 h, saturated solution in PBS pH 7.4, mass of compound, n = 3): 658.661 ± 18.295 ^b µg·cm^−2; EF, enhancement factor ([2]; relative to IBU): 2.11; JSS, steady-state flux ([2]; saturated solution in PBS pH 7.4, n = 3): 56.589 ± 2.204 µg IBU cm^−2 h^−1 |

Marks after values point to notes of the source that are not given here.
